In publication PMC3303751, “Development of Tyrosine-Based Radiotracer ^99mTc-N4-Tyrosine for Breast Cancer Imaging” (Journal of Biomedicine and Biotechnology, 2012):

System: breast tumor (13762) and turpentine oil-induced inflammation
Assay: Tumor and inflammation uptake comparison, micro-PET
Details: tumor- and inflammation-bearing rats; for inflammation-to-muscle (I/M) ratio / tumor-to-inflammation (T/I) ratio / tumor-to-muscle (T/M) ratio: 500 μCi/rat i.v.

## ^18F-2-deoxy-2-fluoro-glucose
30 min
  inflammation-to-muscle (I/M) ratio: 3.43
  tumor-to-inflammation (T/I) ratio: 1.71
  tumor-to-muscle (T/M) ratio: 5.88
60 min
  inflammation-to-muscle (I/M) ratio: 3.77
  tumor-to-inflammation (T/I) ratio: 1.99
  tumor-to-muscle (T/M) ratio: 7.54
90 min
  inflammation-to-muscle (I/M) ratio: 2.72
  tumor-to-inflammation (T/I) ratio: 1.8
  tumor-to-muscle (T/M) ratio: 4.9
All time points
  tumor-to-inflammation (T/I) ratios: greater than 1
